{"source": "patent EP4831176A1", "about": "“BICYCLIC FUSED HETEROAROMATIC RING DERIVATIVE, AND PHARMACEUTICAL COMPOSITION AND USE THEREOF” (dated 2026)", "test_system": "human B-cell non-Hodgkin lymphoma Karpas-422 cell line", "test": "Subcutaneous xenograft tumor model of Karpas-422 cell line in BALB/c nude mice", "description": "• Animal species and strain: BALB/c nude mice • Administration history: no history of administration • Sex, age, weight: female, 6-8 weeks, body weight 18-25 grams • Breeder/supplier: Shanghai Model Organisms Center, Inc. • Acclimation period: no less than 3-7 days • Room: SPF area room • Indoor temperature: 20-26°C • Indoor relative humidity: 40-70% • Lighting: fluorescent lamp illumination, 12-hour light (08:00-20:00) and 12-hour dark • Animal housing: 2-6 animals per cage (same administration group) • Food: unlimited access to feed (irradiated sterilized, Shaanxi Qinle Pharmaceutical Chemical Co., Ltd., China) • Water: unlimited access to drinking water (tap water purified by ultrapure water filtration system) • Female BALB/c nude mice were purchased from the supplier and used to select animals with suitable body weight range and tumor size for enrollment. All animals were specific pathogen-free, approximately 6-8 weeks old upon arrival at the laboratory.\nThe human B-cell non-Hodgkin lymphoma Karpas-422 cell line used in this experiment was cultured in RPMI-1640 medium supplemented with 10% FBS in a 37°C incubator with 5% CO2. Within ten passages of continuous culture, 100 µL of PBS containing 1 × 10^7 Karpas-422 cells was mixed with an equal volume of Matrigel, and the mixture was subcutaneously inoculated into the right side of the mouse near the armpit, with an inoculation volume of approximately 200 µL. Before inoculation, mice were anesthetized with 3-4% isoflurane.\nWhen the tumors grew to an average size of approximately 70-150 mm^3, tumor-bearing mice were randomly assigned to groups based on tumor volume and body weight, with 8 mice per group. The day of grouping and administration was defined as Day 0. […] According to the results disclosed in the reference (J. Med. Chem. 2021, 64, 14540-14556), Compound D1 (CAS: 2585648-55-9) was selected as the positive compound for this experiment.\nThe control group was administered intraperitoneally with 70% aqueous solution containing 5% glucose + 30% aqueous solution containing 15% HP-β-CD. Table 12. Grouping and Administration Regimen\nTumor volume: For the subcutaneous xenograft model, tumor volumes were measured twice weekly after grouping. The tumor volume (V) was calculated as follows: V = (length × width^2) / 2. The relative tumor volume (RTV) for each nude mouse was calculated as: RTV = Vt / V0, where Vt is the measured volume at each time point, and V0 is the volume at the start of treatment.\nAnimal body weight: After grouping, mouse body weight was measured and recorded twice weekly.\nThe negative control group was the control group, and the treatment groups were the groups administered D1 or H105. Results are presented as mean ± S.E.M. Comparisons between two groups were performed using Dunnett's multiple comparison test. A p-value < 0.05 was considered statistically significant.", "key": {"[1]": {"details": "Day 0 (day of grouping and administration), Compound D1 50 mg/kg p.o. QD, Compound H105 10 mg/kg p.o. QD"}, "[2]": {"details": "Day 30, Compound D1 50 mg/kg p.o. QD, Compound H105 10 mg/kg p.o. QD"}}}
{"smiles": "CC(C)N1Cc2cc(C(F)(F)F)ncc2-c2cnc(NCc3c(F)ccc4c3CCO4)n3cnc(c23)C1=O", "values": [{"measurement": "T/C", "setting": "Compound D1 50 mg/kg p.o. QD, Compound H105 10 mg/kg p.o. QD", "value": 2.53, "unit": "%"}, {"measurement": "in vivo anti-tumor activity (in words)", "setting": "Compound D1 at 50 mg/kg, Compound H105 at 10 mg/kg", "value": "could effectively inhibit tumor growth"}, {"measurement": "Average body weight D0", "setting": "[1]", "value": 21.8, "unit": "g"}, {"measurement": "Tumor volume D0", "setting": "[1]", "value": 74}, {"measurement": "Average body weight D30", "setting": "[2]", "value": 20.8, "unit": "g"}, {"measurement": "Tumor volume D30", "setting": "[2]", "value": 30}, {"measurement": "RTV", "setting": "relative tumor volume Vt/V0, Compound D1 50 mg/kg p.o. QD, Compound H105 10 mg/kg p.o. QD", "value": 0.43}, {"measurement": "TGI", "setting": "tumor growth (volume) inhibition rate, Compound D1 50 mg/kg p.o. QD, Compound H105 10 mg/kg p.o. QD", "value": 103.56, "unit": "%"}]}
